According to patent US20110171259A1 (priority 2008, published 2011):
Ends that are not written are not given here.

Amino acid sequences for entries named in this document (tags omitted). Residues count along the entry.
UniProt O60603, 21-784: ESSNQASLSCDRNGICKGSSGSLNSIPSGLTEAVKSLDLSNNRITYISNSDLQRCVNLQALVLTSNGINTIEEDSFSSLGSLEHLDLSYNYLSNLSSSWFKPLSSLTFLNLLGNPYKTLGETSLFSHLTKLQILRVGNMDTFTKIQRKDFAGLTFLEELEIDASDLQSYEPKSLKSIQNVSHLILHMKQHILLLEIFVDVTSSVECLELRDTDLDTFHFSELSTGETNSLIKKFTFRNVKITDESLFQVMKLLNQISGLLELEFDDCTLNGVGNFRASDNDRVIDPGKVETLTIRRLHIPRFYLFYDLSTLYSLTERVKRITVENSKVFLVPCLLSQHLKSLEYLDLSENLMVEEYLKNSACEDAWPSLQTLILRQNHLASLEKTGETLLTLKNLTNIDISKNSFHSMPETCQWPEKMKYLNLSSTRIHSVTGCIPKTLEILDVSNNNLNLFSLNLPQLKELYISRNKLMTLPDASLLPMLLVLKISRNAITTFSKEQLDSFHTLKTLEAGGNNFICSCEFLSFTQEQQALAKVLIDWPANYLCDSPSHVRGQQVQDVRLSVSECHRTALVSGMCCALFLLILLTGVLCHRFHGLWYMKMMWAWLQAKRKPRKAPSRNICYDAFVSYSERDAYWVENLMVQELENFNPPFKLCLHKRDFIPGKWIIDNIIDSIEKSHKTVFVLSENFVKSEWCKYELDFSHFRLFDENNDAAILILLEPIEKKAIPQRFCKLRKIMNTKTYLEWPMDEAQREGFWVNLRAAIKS
UniProt Q15399, 25-786: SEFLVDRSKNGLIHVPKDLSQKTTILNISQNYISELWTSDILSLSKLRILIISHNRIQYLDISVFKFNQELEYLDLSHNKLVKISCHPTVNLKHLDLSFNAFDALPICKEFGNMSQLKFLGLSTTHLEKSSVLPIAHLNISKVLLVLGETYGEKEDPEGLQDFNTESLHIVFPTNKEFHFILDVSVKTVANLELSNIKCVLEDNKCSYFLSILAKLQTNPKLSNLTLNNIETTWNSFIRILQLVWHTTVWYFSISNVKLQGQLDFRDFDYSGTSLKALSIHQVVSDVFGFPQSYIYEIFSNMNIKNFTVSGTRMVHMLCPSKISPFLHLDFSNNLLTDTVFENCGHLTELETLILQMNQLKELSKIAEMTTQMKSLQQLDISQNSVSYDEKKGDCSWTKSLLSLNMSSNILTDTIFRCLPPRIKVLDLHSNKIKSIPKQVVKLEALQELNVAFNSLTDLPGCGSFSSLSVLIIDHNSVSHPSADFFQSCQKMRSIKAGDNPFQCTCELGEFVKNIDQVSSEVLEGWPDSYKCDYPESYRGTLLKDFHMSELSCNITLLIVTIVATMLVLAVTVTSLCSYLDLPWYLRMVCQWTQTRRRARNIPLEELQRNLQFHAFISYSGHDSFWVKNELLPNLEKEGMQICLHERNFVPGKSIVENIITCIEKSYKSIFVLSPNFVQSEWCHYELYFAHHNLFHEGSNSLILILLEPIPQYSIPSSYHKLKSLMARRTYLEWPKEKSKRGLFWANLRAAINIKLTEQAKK

Biological target: human TLR 1 and 2 (Homo sapiens, UniProt O60603+Q15399)
Assay: NF-κB SEAP reporter assay in HEK293 cells expressing TLR 1 and 2
Conditions: TLR1/2-expressing HEK293 cells; 0, 0.01, 0.1, 1.0 μg; 5 hours exposure; FIG. 3

In the case of “Pam3Cys-GGEKAAEAPAAEAP [Lip peptide MC58]”, the “NF-κB activation (relative 650 nm optic density, SEAP)” value is reported as “acted as a TLR1 and TLR2 agonist in a concentration dependent manner”.
